## Ab-14 light chain CDR variants: yeast mating affinities

Source: Li et al. 2023 (doi:10.1038/s41467-023-39022-2), MIT Lincoln Laboratory and A-Alpha Bio; data file from the FLAb repository.

All variants were tested on one target, the spike HR2 peptide PDVDLGDISGINAS (SARS-CoV-2).

Each scFv is VH, a (GGGGS)3 linker, VL, as in the parent Ab-14, and differs from it in the CDRs of the light chain only.
VH: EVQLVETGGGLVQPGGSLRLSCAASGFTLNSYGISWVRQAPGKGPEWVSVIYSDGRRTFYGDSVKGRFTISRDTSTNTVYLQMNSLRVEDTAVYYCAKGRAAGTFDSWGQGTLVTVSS
VL: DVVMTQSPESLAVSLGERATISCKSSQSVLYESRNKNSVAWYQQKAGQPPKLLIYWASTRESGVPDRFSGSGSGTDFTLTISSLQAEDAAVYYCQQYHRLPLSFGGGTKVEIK

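The starting antibody came from a phage panning campaign against this peptide. The variants were designed computationally from a first round of random CDR variants and then made and measured. Group labels follow the data file (En: ensemble of fine-tuned language models; GP: Gaussian process model; HC: hill climbing; Gen: genetic algorithm; Gibbs: Gibbs sampling; a sequence that several methods proposed may carry one label only). AlphaSeq pools MATa yeast showing the antibodies with MATalpha yeast showing the peptide. The frequency of each diploid, read from paired DNA barcodes, reflects how well the two displayed proteins bind. Scores were corrected for input abundance and mapped to Kd with protein pairs of known affinity run in the same pool. Each pool was mated in six replicate cultures.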

Variants are written as CDR1, CDR2 and CDR3 of the light chain (limits as in the source). Parent: KSSQSVLYESRNKNSVA, WASTRES, QQYHRLPLS. This list holds designs with more than six substitutions. Kd is apparent (estimated from mating counts) and averaged on the log scale over replicates with a signal. Smaller is tighter. "no signal" marks a missing value. The strain was present, yet no cells mated with the target were sequenced in any replicate, which points to weak or no binding. Order: sorted from the lowest average up, undetected variants last. A sequence measured in both rounds can read differently, since the two assays cover different ranges. The authors' rule: three or more of the six replicates give a measured affinity, fewer mean a poor binder. Three control strains display no target. For all light chain designs, 4% of the pairings with them gave a signal, with a median of 430 nM and one signal in twenty below 38 nM, so weak values seen in few replicates may be background.

With ILSASELYGDRMKNSVA, NASQRES, QQYHRLPLS [GP_Gibbs] the result was 920 pM (6 of 6 replicates).
With HMSEYEHGDNVGVGNMA, NAHETVA, QQYHHLPLS [En_Gibbs] the result was 940 pM (6 of 6 replicates).
With KIHISELYEDRNKNSVA, SASQRLE, QQYHRLPLS [GP_Gibbs] the result was 1.0 nM (6 of 6 replicates).
With MVTQMAMTGMTNKRSVA, NAETREY, QQYFRLPLI [En_Gen] the result was 1.2 nM (6 of 6 replicates).
With KVSWSNLYESRNANSVA, NASQRCS, QQYHRLPLS [GP_Gibbs] the result was 1.2 nM (6 of 6 replicates).
With KLSQQMEYESRNHNNVA, AASTRED, QQYHRLPLS [GP_Gibbs] the result was 1.3 nM (6 of 6 replicates).
With MISDLTQYGSRNKNSVA, DLSTRGS, QQYHRLPLS [En_HC] the result was 1.5 nM (6 of 6 replicates).
With KIGGTLNQLMHKKNNVA, DLVMREN, QQYHRLPLS [En_Gen] the result was 1.6 nM (6 of 6 replicates).
With NVDISANVGYMHKAAVA, EHDMRVG, QQYYRLPLA [En_Gibbs] the result was 1.7 nM (6 of 6 replicates).
With TISQSMLYLSNLKNSVA, QAETREA, QQYHRLPIS [En_HC] the result was 2.1 nM (6 of 6 replicates).
With KVSMQVWYSSRNKNSVA, DANTRES, QQYHRLPLS [GP_Gibbs] the result was 2.3 nM (6 of 6 replicates).
With KLGSATRFESSNKASIA, DNSTREQ, QQYHRLPLS [En_HC] the result was 2.4 nM (6 of 6 replicates).
With KFSQMSNMFSVSMNAVA, EMSTRPE, QQYNRLPLS [En_Gen] the result was 2.4 nM (6 of 6 replicates).
With NIVGRVEDKQTENNNIA, DAHCRAG, QQYSRLPLS [En_Gibbs] the result was 3.0 nM (6 of 6 replicates).
With KIGATLNMMEHKKNNVA, DLVTREN, QQYHRLPLS [En_Gen] the result was 3.1 nM (6 of 6 replicates).
With KLYSVTGTEKVNGNNVA, EMETRER, QQYNRLPLS [En_Gen] the result was 3.2 nM (6 of 6 replicates).
With KCSQSVDYEDRNMNNVA, NASTRES, QDYHRLPLS [GP_Gibbs] the result was 3.6 nM (6 of 6 replicates).
With QLSMITGHVSMIKNNVA, EMETRMN, QQYDRLPLS [En_Gen] the result was 3.6 nM (6 of 6 replicates).
With KVSPSWQYESRNKQSVA, HASQREE, QQYHRLPLS [GP_Gibbs] the result was 4.4 nM (6 of 6 replicates).
With NFSQMVLYGQTLKNSVA, HASTREE, QQYHRLPLI [En_HC] the result was 5.1 nM (6 of 6 replicates).
With KLLGQNLQNMDKLNSIA, DQSVHYQ, QQYGRLPFT [En_Gibbs] the result was 5.6 nM (6 of 6 replicates).
With NMNVGANFGKNQEQAIA, EVEDRES, QQYARLPLT [En_Gibbs] the result was 6.1 nM (6 of 6 replicates).
With KLLQNTGVGLRWANNVA, HMSTRED, QQYHRLPFV [En_Gen] the result was 6.5 nM (6 of 6 replicates).
With SLMQVGGYESNNHNSIA, DLRTREN, QQYHRLPLS [En_HC] the result was 6.8 nM (6 of 6 replicates).
With NFSQMVLTGTTLRNSVA, HASTREE, QQYHRLPLI [En_HC] the result was 8.1 nM (6 of 6 replicates).
With MVTQMAMTGMMSKRSVA, NATMREY, QQYDRLPLI [En_Gen] the result was 8.6 nM (6 of 6 replicates).
With MMSQLTYMGSRARNAVA, QAEMRVN, QQYHHLPLF [En_HC] the result was 8.7 nM (5 of 6 replicates).
With TISQSVNMTSHGRNSVA, QAEMREQ, QQYDRLPLS [En_HC] the result was 11 nM (6 of 6 replicates).
With HMSAVTMMGSRHRNSVA, QMTTREN, QQYDHLPLS [En_Gen] the result was 12 nM (6 of 6 replicates).
With KLGSMVLLEYGNTNSIA, QQSTREE, QQYDRLPLS [En_HC] the result was 13 nM (6 of 6 replicates).
With MLTMFANENQGWSNNIA, DTNNLNT, QQYQRLPFM [En_Gibbs] the result was 13 nM (6 of 6 replicates).
With KVSGFMRGLMERKDSIA, DNETRSN, QQYDRLPLS [En_Gen] the result was 21 nM (6 of 6 replicates).
With NFSQMVLTGSTLKNSVA, HANTREE, QQYHRLPLI [En_HC] the result was 28 nM (6 of 6 replicates).
With MINGSVMSESRLKNSVA, QTTTRES, QQYDRLPLS [En_HC] the result was 29 nM (6 of 6 replicates).
With KFAMGLDYNNAHKSAVA, HADIRNI, QQYFRLPLD [En_Gibbs] the result was 32 nM (6 of 6 replicates).
With KLSMVTGHMSMSKDNVA, EMETREY, QQYDRLPLS [En_Gen] the result was 43 nM (6 of 6 replicates).
With KISQMYRYEQQNSSSIA, EANTREE, QSYHRLPLS [En_HC] the result was 46 nM (6 of 6 replicates).
With KISSLTLYESVEKNNIA, EMSTRPS, QSYHRLPLS [En_HC] the result was 53 nM (6 of 6 replicates).
With KLTATMRFEQKISNNIA, EVTQRSK, QQYARLPLS [En_Gen] the result was 56 nM (5 of 6 replicates).
With AIAGTLHVNQSGVSNVA, QVQMREV, QQYYQLPLG [En_Gibbs] the result was 61 nM (6 of 6 replicates).
With KISQMVRVGSTHSSSIA, EEVTRAK, QQYHRLPLS [En_Gen] the result was 79 nM (5 of 6 replicates).
With MISQLINMGQFAINSVA, QAETRCN, QQYDRLPLM [En_Gen] the result was 81 nM (2 of 6 replicates).
With KLSMSMLLESFHKNSVA, ENSTREA, QHYHRLPLS [En_HC] the result was 98 nM (4 of 6 replicates).
With SLGLVTMLEYAGRNNVA, NNSTREN, QQYDRLPLS [En_Gen] the result was 290 nM (2 of 6 replicates).
With KFDFQMPELNYQDNSVA, GMTVSIE, QQYFRLPLT [En_Gibbs] the result was no signal (0 of 6 replicates).
With KLSISYLFQSLEKNSIA, ENSTREK, QHYHRLPLS [En_HC] the result was no signal (0 of 6 replicates).
With IVSQLMMWGLHAKNSIA, EAVTRLN, QQYDRLPLF [En_Gen] the result was no signal (0 of 6 replicates).
With QLRDDIWADGMNKGSIA, ANEVSKD, QQYNRLPLS [En_Gibbs] the result was no signal (0 of 6 replicates).

Top 3 of the variants detected in all replicates, tightest first:

CDR-L1	CDR-L2	CDR-L3	group	apparent Kd	seen in
ILSASELYGDRMKNSVA	NASQRES	QQYHRLPLS	GP_Gibbs	920 pM	6/6
HMSEYEHGDNVGVGNMA	NAHETVA	QQYHHLPLS	En_Gibbs	940 pM	6/6
KIHISELYEDRNKNSVA	SASQRLE	QQYHRLPLS	GP_Gibbs	1.0 nM	6/6